This note sets out measurements from ChEMBL document CHEMBL3779865, “Discovery of Benzo[cd]indol-2(1H)-ones as Potent and Specific BET Bromodomain Inhibitors: Structure-Based Virtual Screening, Optimization, and Biological Evaluation” (J Med Chem, 2016).

One data set has as its system Rattus norvegicus. Briefly: Apparent clearance during terminal phase in Sprague-Dawley rat at 5 mg/kg, iv. The data set is classed as ADME, organism-based. The following applies: in vivo.
Data set [1] in a line: Efflux ratio of apparent permeability from basolateral to apical side over apical to basolateral side in human Caco2 cells at 10 uM incubated for 1 hr by HPLC-MS/MS analysis. Format: ADME, cell-based. The following applies: Caco-2. (Caco-2 cells form a polarised layer with tight junctions and transporters.)

Structures are written as SMILES.

Take `CCN1C(=O)c2cccc3c(NS(=O)(=O)c4cc(Br)ccc4OC)ccc1c23`: the CLz/F in the data set on Rattus norvegicus came out at 132 mL/min/kg. The efflux ratio (in general, the permeability from basolateral to apical divided by that in the opposite direction, in the common usage) at 1 h, 10 µM in data set [1] amounted to 2.4.
